Laboratory results from PubChem BioAssay AID588795 (National Center for Advancing Translational Sciences (NCATS), 2011).
This is a selection; strong and weak results do not stand in their true shares. Activity calls are given as the source filed them. The call rests on the fitted dose curve; in most records, active means well fitted inhibition curve with a large enough effect; inconclusive means small, poorly fitted or top-dose-only effect; inactive means no such curve, though single readings can be large or run the other way. A call without a number means that no potency is given here.

The chains behind the UniProt entries cited, without tags or fusion partners.
UniProt P39748, whole entry, looked up: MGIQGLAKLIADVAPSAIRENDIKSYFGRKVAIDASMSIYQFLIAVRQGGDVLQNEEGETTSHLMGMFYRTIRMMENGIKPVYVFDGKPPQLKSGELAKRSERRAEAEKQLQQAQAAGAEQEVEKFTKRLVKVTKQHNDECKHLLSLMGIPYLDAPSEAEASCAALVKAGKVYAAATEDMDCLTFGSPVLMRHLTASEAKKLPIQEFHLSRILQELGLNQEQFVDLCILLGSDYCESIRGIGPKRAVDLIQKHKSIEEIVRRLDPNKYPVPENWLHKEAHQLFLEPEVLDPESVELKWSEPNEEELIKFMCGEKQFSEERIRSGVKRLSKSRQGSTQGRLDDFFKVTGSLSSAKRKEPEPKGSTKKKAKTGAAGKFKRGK

biological target: Flap endonuclease 1 (Homo sapiens) (UniProt P39748); assay: qHTS Assay for the Inhibitors of Human Flap endonuclease 1 (FEN1).; further: nearly all actives have a fitted effect of over 65% in size; settings: Recombinant FEN1 flap cleavage, fluorescence, 15 min; series mostly up to 114 µM

| Structure (SMILES) | Potency |
| --- | --- |
| O=[N+]([O-])c1cc([N+](=O)[O-])c2nc[nH]c2c1 | inactive |
| Cc1ccc(NP(=O)(Oc2cccc(C)c2)Oc2cccc(C)c2)nc1 | inactive |
| c1ccc(-c2nn[nH]n2)c(-c2nn[nH]n2)c1 | inactive |
| O=C(NC1CCS(=O)(=O)C1)NP(=S)(Oc1ccccc1)Oc1ccccc1 (stereo not given) | inactive |
| CCNC(=S)/N=C(\N)N[N+](=O)[O-] | inactive |
| CCC(=O)N1C2C3N(C(=O)CC)C1C1N(C(=O)CC)C(C(N1C(=O)CC)N3C(=O)CC)N2C(=O)CC | inactive |
| O=C(OC1CN2CCC1CC2)c1ccccc1 (stereo not given) | inactive |
| Cc1ccc(OP(=O)(Nc2ccccn2)Oc2ccc(C)cc2)cc1 | inactive |
| CC(=O)NC(SC(=S)N(CC(C)C)CC(C)C)C(Cl)(Cl)Cl (stereo not given) | inactive |
| CC(NC(=O)COC(=O)C(O)(c1ccccc1)c1ccccc1)c1ccccc1 (stereo not given) | inactive |
| CCOc1ccc(C2=NCC(CBr)S2)cc1 (stereo not given) | inactive |
| O=P1(Nc2nc3ccc(Cl)cc3s2)COc2ccccc2O1 (stereo not given) | inactive |
| CCc1cc(O)c([N+](=O)[O-])c(C)c1[N+](=O)[O-] | inactive |
| C[C@@H]1C=CCP(=O)(Oc2ccccc2)O1 (stereo not given in full) | inactive |
| C[C@H]1OP(=O)(Oc2ccccc2)C[C@@H]2O[C@@H]21 (stereo not given in full) | inactive |
| Cc1ccccc1CN(C)C(=O)COC(=O)C(O)(c1ccccc1)c1ccccc1 | inactive |
| N#C/C(=C\c1ccc(N(CCBr)CCBr)cc1)C(N)=O | inactive |
| CC(=O)Nc1ccc(Oc2c([N+](=O)[O-])cc([N+](=O)[O-])cc2[N+](=O)[O-])cc1 | inactive |
| CC(=O)Nc1ccc([As](=O)(O)O)c(O)c1 | inactive |
| O=P(Nc1nccs1)(c1ccccc1)c1ccccc1 | inactive |
| CC(C)C(=O)NC(Sc1ccccc1)C(Cl)(Cl)Cl (stereo not given) | inactive |
| c1nnnn1CCn1cnnn1 | inactive |
| CN(C)C1(CNC(=O)c2ccc(Cl)c(S(N)(=O)=O)c2)CCCCC1 | inactive |
| COc1ccc(N)c([N+](=O)[O-])c1[N+](=O)[O-] | inactive |

| Structure (SMILES) | Potency |
| --- | --- |
| C[C@H]1OP(=O)(Oc2ccccc2)[C@H](O)[C@H](O)[C@H]1N=[N+]=[N-] (stereo not given in full) | inactive |
| O=P(Nc1nc2ccccc2s1)(c1ccccc1)c1ccccc1 | inactive |
| O=[As](O)(c1ccccc1)c1ccc(O)cc1 | inactive |
| O=[N+]([O-])c1ncn(CCn2cnc([N+](=O)[O-])n2)n1 | inactive |
| CC(=O)NC(SC(=S)N(C)C)C(Cl)(Cl)Cl (stereo not given) | inactive |
| O=C(OC1CN2CCC1CC2)c1cccc(Cl)c1 (stereo not given) | inactive |
| Nc1ccc([As](=O)(O)c2ccc([N+](=O)[O-])cc2)cc1 | inactive |
| C(Cc1nn[nH]n1)Cc1nn[nH]n1 | inactive |
| O=P1(N(CCCl)CCCl)OCCCS1 (stereo not given) | inactive |
| Cc1cc(C=O)ccc1N(CCCl)CCCl | inactive |
| O=C(Nc1cc([As](=O)(O)O)ccc1O)c1ccccc1 | inactive |
| O=P(/N=c1/nc(-c2ccccc2)n(-c2ccccc2)s1)(Nc1ccccc1)Nc1ccccc1 | inactive |
| O=[N+]([O-])c1ncn(CCn2ncnc2[N+](=O)[O-])n1 | inactive |
| CC(C)(C)C(=O)NC(Sc1ccncn1)C(Cl)(Cl)Cl (stereo not given) | inactive |
| O=C(O)CNc1ccc([As](=O)(O)O)cc1 | inactive |
| COC(=O)C1(C)COP(=O)(Nc2ccccc2)OC1 (stereo not given) | inactive |
| COc1ccc(C2=NCC(CBr)S2)cc1 (stereo not given) | inactive |
| O=[N+]([O-])c1cc([N+](=O)[O-])c(CCNc2ccccc2)c([N+](=O)[O-])c1 | inactive |
| CCc1nc2c(n1)c1c(non1O)c1c2no[n+]1[O-] | inactive |
| Cc1ccc(NP(=O)(Oc2ccccc2)Oc2ccccc2)nc1 | inactive |
| CC(=O)N1C2C3N(C(C)=O)C1C1N(C(C)=O)C(C(N1C(C)=O)N3C(C)=O)N2C(C)=O | inactive |
| O=[N+]([O-])c1cccc2n[nH]nc12 | inactive |
| CCN(/C(=N/P(=O)(N1CCOCC1)N1CCOCC1)N1CCOCC1)c1ccc(OC)cc1 | inactive |
| Nc1ccc([As](=O)(O)c2ccc(N)cc2)cc1 | inactive |

| Structure (SMILES) | Potency |
| --- | --- |
| CC1CCN(C(=O)Oc2c(Cl)cc(Cl)c3cccnc23)CC1 | inactive |
| CN(C)C(=O)OCCc1n(C)cc[n+]1C | inactive |
| CC(C)=N/N=C(\N)N[N+](=O)[O-] | inactive |
| COc1cc([N+](=O)[O-])c([N+](=O)[O-])cc1OC | inactive |
| Cc1ccc(N/C(=N/P(=O)(N2CCOCC2)N2CCOCC2)N2CCOCC2)cc1 | inactive |
| CN(C(=O)Cc1ccc(Cl)c(Cl)c1)[C@H]1CCCC[C@H]1N1CCCC1 | inactive |
| O=[N+]([O-])c1cc2c(cc1[N+](=O)[O-])OCO2 | inactive |
| NC(=O)c1cc([N+](=O)[O-])cc([N+](=O)[O-])c1N | inactive |
| Clc1ccc(Cl)c(NC2=NCC(CBr)S2)c1 (stereo not given) | inactive |
| CN1CCCC(OC(=O)C(c2ccccc2)c2ccccc2)C1 (stereo not given) | inactive |
| Cc1ccc(OP(=O)(Nc2nccs2)Oc2ccc(C)cc2)cc1 | inactive |
| COc1ccccc1OP(=O)(Nc1ccc(C)cn1)Oc1ccccc1OC | inactive |
| O=C(NC(Sc1ccncn1)C(Cl)(Cl)Cl)c1ccccc1 (stereo not given) | inactive |
| Oc1ccccc1CNc1ccccn1 | inactive |
| CC(C)CC(=O)NC(Sc1ccc(Cl)cc1)C(Cl)(Cl)Cl (stereo not given) | inactive |
| Nc1cc(N)c2nonc2c1[N+](=O)[O-] | inactive |
| O=P(Nc1nc2ccc(Cl)cc2s1)(c1ccccc1)c1ccccc1 | inactive |
| CCCC1OP(N)(=O)OCC1CC (stereo not given) | inactive |
| O=C(O)c1ccccc1[As](=O)(O)O | inactive |
| CC(=O)Nc1ccc([As](=O)(O)O)cc1 | inactive |
| CN(C(=O)Cc1ccc(Cl)c(Cl)c1)[C@H]1CCCC[C@@H]1N1CCCC1 | inactive |
| CCOP(=O)(Nc1ccccc1)OCC | inactive |
| Cc1cc(SC(NC(=O)c2ccc(F)cc2)C(Cl)(Cl)Cl)ncn1 (stereo not given) | inactive |
| Nc1c(O)cc([N+](=O)[O-])cc1[N+](=O)[O-] | inactive |

| Structure (SMILES) | Potency |
| --- | --- |
| Nc1cccc2ccc([As](=O)(O)O)cc12 | inactive |
| COc1cc(C(=O)NCC2(N3CCOCC3)CCCCC2)ccc1OCC(C)C | inactive |
| O=[N+]([O-])c1ccc(-c2cc([N+](=O)[O-])c(O)c([N+](=O)[O-])c2)cc1 | inactive |
| C[As](=O)(O)c1cccc(C(=O)O)c1 | inactive |
| O=[As](O)(c1ccc(O)cc1)c1ccccc1O | inactive |
| ClCCN(CCCl)c1ccc(CC2C=CC=C2)cc1 | inactive |
| Cc1ccc(OP(=O)(Nc2ccc([N+](=O)[O-])cn2)Oc2ccc(C)cc2)cc1 | inactive |
| Cc1ccc2nc3c(c(C)c2c1)CC(C(Cl)Cl)S3 (stereo not given) | inactive |
| O=Cc1ccc(NCCCl)cc1 | inactive |
| ClCCSc1nnc(-c2cccnc2)o1 | inactive |
| CC(C)c1ccc(OP(=O)(Nc2ccccn2)Oc2ccccc2F)cc1 (stereo not given) | inactive |
| COC(=O)C1(C)COP(=O)(N2CCCCCC2)OC1 (stereo not given) | inactive |
| O=[N+]([O-])c1cc([N+](=O)[O-])c(-c2ccn[nH]2)s1 | inactive |
| O=C(OC1CN2CCC1CC2)c1cccc2[nH]cnc12 (stereo not given) | inactive |
| CCN(CC)C(=S)SC(NC=O)C(Cl)(Cl)Cl (stereo not given) | inactive |
| CC(C)NC(=O)NP(=O)(Oc1ccccc1)Oc1ccccc1 | inactive |
| Cc1c2c(nc3ccccc13)SC(C(Cl)Cl)C2 (stereo not given) | inactive |
| Cc1cc(=O)[nH]c(N[N+](=O)[O-])n1 | inactive |
| O=C(OC1CN2CCC1CC2)C12CC3CC(CC(C3)C1)C2 (stereo not given) | inactive |
| O=P1(N(CCCl)CCCl)OCCCN1CCCl (stereo not given) | inactive |
| COc1cc(I)ccc1[As](=O)(O)O | inactive |
| COc1ccc2nc(NP(=O)(c3ccccc3)c3ccccc3)sc2c1 | inactive |
| O=[N+]([O-])c1cc(Oc2ccc([N+](=O)[O-])cc2C(F)(F)F)cc([N+](=O)[O-])c1 | inactive |
| COc1ccc(N/C(=N/P(=O)(N2CCOCC2)N2CCOCC2)N2CCOCC2)cc1 | inactive |

| Structure (SMILES) | Potency |
| --- | --- |
| COP1(=S)c2c(C)nn(CCC#N)c2N=C(c2ccc(F)cc2)N1C (stereo not given) | inactive |
| O=C(Nc1ccncc1[N+](=O)[O-])c1ccc([N+](=O)[O-])cc1[N+](=O)[O-] | inactive |
| O=C(COc1ccccc1)OC1CN2CCC1CC2 (stereo not given) | inactive |
| O=C(OC1CN2CCC1CC2)c1cccc([N+](=O)[O-])c1 (stereo not given) | inactive |
| CCOC(=O)c1ccc(NC(=O)C(C)(CCl)SC)cc1 (stereo not given) | inactive |
| CCC(C)N(CC(C)C)C(=S)SC(NC(C)=O)C(Cl)(Cl)Cl (stereo not given) | inactive |
| CCOP(=O)(Nc1cccc2cccnc12)OCC | inactive |
| CCOC(=O)Nc1ccc([As](=O)(O)O)c(O)c1 | inactive |
| CC1CCNP(=O)(N(CCCl)CCCl)O1 (stereo not given) | inactive |
| Cc1cc(SC(NC(=O)c2ccccc2)C(Cl)(Cl)Cl)nc(C(C)C)n1 (stereo not given) | inactive |
| CCCCOc1ccc(C(=O)NCC2(N3CCCCC3)CCCCC2)cc1OC | inactive |
| CCOC(=O)Nc1cccc([As](=O)(O)O)c1 | inactive |
| Cc1cc(SC(NC=O)C(Cl)(Cl)Cl)ncn1 (stereo not given) | inactive |
| O=P(Nc1ccccn1)(c1cccc2ccccc12)c1cccc2ccccc12 | inactive |
| O=[N+]([O-])c1ccc(Nc2ccc(Oc3ccc([N+](=O)[O-])cc3[N+](=O)[O-])cc2)c([N+](=O)[O-])c1 | inactive |
| COc1cc([N+](=O)[O-])ccc1[N+](=O)[O-] | inactive |
| Cc1ccc(C(=O)OC2CN3CCC2CC3)cc1 (stereo not given) | inactive |
| CC1CCC(C(C)C)C(OP(=O)(Nc2ccccn2)c2ccccc2)C1 (stereo not given) | inactive |
| Cc1nn(-c2ccccc2)c2c1P(=O)(N1CCOCC1)N(C)C(c1ccccc1)=N2 (stereo not given) | inactive |
| CN(C)C1(CNC(=O)c2ccc(S(C)(=O)=O)cc2)CCCCC1 | inactive |
| CCCC1OP(=O)(Nc2ccccc2)OCC1CC (stereo not given) | inactive |
| O=C(/C=C/c1ccccc1)OC1CN2CCC1CC2 (stereo not given) | inactive |
| O=P1(Nc2ncccn2)COc2ccccc2OC1 | inactive |
| Nc1cccc([As](=O)(O)c2ccccc2)c1 | inactive |
